High-throughput results from PubChem.
Sampled rows, rich in hits. Any-hit rate of the full collection: about 2.2%.
SIRT5 block: SIRT5 desuccinylase inhibitors, primary screen, biochemical, fluorescence imaging, single point, set 5 | NAD-dependent protein deacylase sirtuin-5, mitochondrial (Homo sapiens), Q9NXA8 | actives 1.1% (n = 330,000) | inhibition, % at 15 µM | AID 652115, 2013 | Purified SirT5, succinyl-peptide AMC, trypsin-coupled fluorescence; in the data active = inhibition above about 15%
FGF22 binding: binders of human FGF22 protein, primary screen, FGF22 synaptogenesis inhibitor project, biophysical, thermal shift, single point; Fibroblast growth factor 22 (Homo sapiens), Q9HCT0; activity (Tm shift, normalised), % at 9.99 µM; recombinant FGF22 thermal shift, SYPRO orange fluorescence; percent of sucrose octasulfate shift, DMSO zero; actives 1.5% (n = 340,000);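 active = mean Tm shift, scaled 0 neutral to 100 positive control, at about 1.3% or above, every replicate too, limit read from the data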
S100A4 MyoIIA: inhibitors of S100A4-myosin IIA peptide binding, primary screen, biochemical, fluorescence polarization, TAMRA-MyoIIA peptide; Protein S100-A4 (Homo sapiens), P26447; inhibition, % at 10.7 µM; actives 0.14% (n = 360,000); AID 652163, 2013;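 active = mean inhibition of at least 70% across replicates, with every replicate also reaching that level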
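Material: S100A4 monomer protein / Buffer or medium: 50 mM HEPES pH 7.2, 10 mM CaCl2, 100 mM KCl / Times: 5 min incubation before reading / Benchmarks: neutral control DMSO, positive control TFP / Reagent: labelled myosin peptide probe, 5 nM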
ERp5 block: inhibitors of ERp5-driven insulin aggregation, primary screen, biochemical, turbidity, absorbance 650 nm, single point | Protein disulfide-isomerase A6 (Homo sapiens), Q15084 | 90 min | inhibition, % at 9.99 µM | actives 0.05% (n = 350,000) | AID 651711, 2012;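 active = mean replicate inhibition above about 25%, with every replicate also reaching it, limit read from the data, passing the limit was not always enough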
PDI inh: inhibitors of human PDI, primary screen, biochemical, turbidity, single point, plate reader; AID 588391, 2011; inhibition, % at 10 µM; Protein disulfide-isomerase (Homo sapiens), P07237; actives 0.052% (n = 350,000); PDI insulin aggregation turbidity, A650, 90 min;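 active = mean inhibition across replicates of 30% or more, whatever share of single replicates reach that level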
UUG fidelity: alters start codon recognition fidelity in yeast. S. cerevisiae UUG-firefly luciferase reporter, luminescence/redox ratio. activity score, % at 18.7 µM. 0.13% of 350,000 active. AID 602363;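 active = replicate mean at a twofold rise or more, about +100% in these data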;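 also: firefly luciferase made from a UUG start codon reports start codon fidelity; reporter light over untreated wells divided by growth signal over untreated wells; some hits fall short of that in this replicate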
* hit, by the source's call; / = no result given.

# | molecule | SIRT5 block | FGF22 binding | S100A4 MyoIIA
1 | O=S(=O)(NC1CCCCC1Oc1ccccc1)c1ccc(Cl)cc1 (stereo unspecified) | -1 | 44* | -2
2 | CC(=O)N1[C@H](CO)[C@@H](c2ccccc2)C12CN(C(=O)c1cnccn1)C2 | 2 | 0 | -3
3 | O=C(CNCC(=O)Nc1ccc(F)c(F)c1F)Nc1ccc(F)c(F)c1F | 1 | 0 | -5
4 | O=C(CNC(=O)C1CC1)Nc1ccc(F)c(F)c1F | -1 | 43* | -10
5 | CC(=O)NC1=NN(C(C)=O)C2(CCCC2)S1 | / | 0 | 2
6 | CC(=O)N1N=C(N)SC12CCCC2 | 20* | 0 | 7
7 | CCOc1ccc(S(=O)(=O)Nc2cccc(C)c2)c2cccnc12 | 18* | 43* | -2
8 | O=C(CCN1CCCCC1)NCC[C@@H]1CC[C@@H](NC(=O)c2ccc(F)cc2)[C@@H](CO)O1 | -5 | 0 | -7

# | ERp5 block | PDI inh | UUG fidelity
1 | -4 | -9 | -2
2 | 3 | / | /
3 | 5 | 9 | -2
4 | -9 | -5 | -15
5 | 0 | -2 | /
6 | 0 | 2 | -16
7 | -2 | -1 | /
8 | 3 | / | -1

Record cards, from the list above. Screens in order: SIRT5 block, FGF22 binding, S100A4 MyoIIA, ERp5 block, PDI inh, UUG fidelity
CC(=O)N1[C@H](CO)[C@@H](c2ccccc2)C12CN(C(=O)c1cnccn1)C2 in the list: 2, 0, -3, 3, /, /
O=C(CNC(=O)C1CC1)Nc1ccc(F)c(F)c1F in the list: -1, 43*, -10, -9, -5, -15
CC(=O)N1N=C(N)SC12CCCC2 in the list: 20*, 0, 7, 0, 2, -16

Additional results
# | molecule | SIRT5 block | FGF22 binding | S100A4 MyoIIA
9 | COC(=O)c1ccc(CNC(=O)COC(=O)CNS(=O)(=O)c2ccc(C)cc2)cc1 | / | 0 | -3
10 | C=CCNC(=O)CNS(=O)(=O)c1ccc(F)cc1 | 18* | 0 | 2
11 | Cc1ccc(S(=O)(=O)NCC(=O)OCC(=O)NCc2ccc(F)cc2)cc1 | 34* | 0 | 9
12 | C[C@H]1CN([C@@H](C)CO)C(=O)c2cc(NS(=O)(=O)c3ccc(F)cc3)ccc2O[C@@H]1CN(C)C(=O)Nc1ccc2c(c1)OCO2 | -8 | 0 | 6
13 | COc1ccc(C(=O)Nc2ccc(S(=O)(=O)Nc3nccnc3OC)cc2)cc1 | / | / | /
14 | COc1nccnc1NS(=O)(=O)c1ccc(NC(=O)c2cccc(C)c2)cc1 | -1 | 43* | -4
15 | O=C(Nc1cc(Cl)ccc1-n1cncn1)c1ccc(Br)o1 | -2 | 13* | -4
16 | Cc1ccc(C2=NCCn3c2c2ccc(C(F)(F)F)cc2[n+]3[O-])cc1 | 0 | 43* | -1

# | ERp5 block | PDI inh | UUG fidelity
9 | 6 | -1 | -5
10 | 9 | -3 | -18
11 | 8 | 6 | /
12 | -8 | / | 4
13 | / | 3 | -1
14 | 5 | 0 | /
15 | 3 | -6 | /
16 | 4 | 4 | 6

The listing continues.
# | molecule | SIRT5 block | FGF22 binding | S100A4 MyoIIA
17 | COc1ccc(C2=NCCn3c2c2ccc(C(F)(F)F)cc2[n+]3[O-])cc1 | / | 0 | -5
18 | O=C(O)c1cccc(NC(=S)NC(=O)c2ccc(-c3ccccc3)cc2)c1 | -2 | 0 | -3
19 | Cc1ccc(C(=O)O)cc1NC(=S)NC(=O)c1ccc(-c2ccccc2)cc1 | 1 | 43* | 0
20 | C[C@H](CO)N1C[C@H](C)[C@@H](CN(C)Cc2ccccc2)Oc2c(NC(=O)c3cnccn3)cccc2C1=O | 3 | 0 | -41
21 | COc1ccc(S(=O)(=O)Nc2ccc3c(c2)C(=O)N([C@H](C)CO)C[C@H](C)[C@@H](CN(C)S(=O)(=O)c2ccc(C)cc2)OCCCC[C@@H](C)O3)cc1 | 13 | 0 | -11
22 | COc1ccc(S(=O)(=O)N(C)C[C@H]2OCCCC[C@@H](C)Oc3ccc(NS(=O)(=O)c4ccc(C)cc4)cc3C(=O)N([C@@H](C)CO)C[C@H]2C)cc1 | 24* | / | -13
23 | COc1ccc(S(=O)(=O)N(C)C[C@@H]2OCCCC[C@@H](C)Oc3ccc(NS(=O)(=O)c4ccc(C)cc4)cc3C(=O)N([C@@H](C)CO)C[C@H]2C)cc1 | 17* | 0 | 12
24 | COc1ccc(S(=O)(=O)N(C)C[C@H]2OCCCC[C@@H](C)Oc3ccc(NS(=O)(=O)c4ccc(C)cc4)cc3C(=O)N([C@H](C)CO)C[C@@H]2C)cc1 | 5 | 0 | 7

# | ERp5 block | PDI inh | UUG fidelity
17 | 4 | -4 | -4
18 | -3 | -3 | /
19 | -1 | 10 | 12
20 | 0 | / | -6
21 | 7 | / | -3
22 | -3 | / | 0
23 | -4 | / | -4
24 | -11 | / | -11

Copied from the list:
SIRT5 block result of entry 15 : -2
S100A4 MyoIIA result of entry 6 : 7

Further entries.
# | molecule | SIRT5 block | FGF22 binding | S100A4 MyoIIA
25 | COc1ccc(S(=O)(=O)N(C)C[C@H]2OCCCC[C@H](C)Oc3ccc(NS(=O)(=O)c4ccc(C)cc4)cc3C(=O)N([C@H](C)CO)C[C@@H]2C)cc1 | 23* | 0 | -45
26 | COc1ccc(S(=O)(=O)N(C)C[C@H]2OCCCC[C@H](C)Oc3ccc(NS(=O)(=O)c4ccc(C)cc4)cc3C(=O)N([C@@H](C)CO)C[C@H]2C)cc1 | 20* | 0 | -20
27 | CN(C)C(=O)c1ccc(-c2ccccc2[C@@H]2[C@H](C#N)N(C(=O)C3CCCC3)[C@H]2CO)cc1 | 2 | / | -28
28 | CO[C@@H]1CN(C)C(=O)c2cc(NC(=O)C3CC3)ccc2OC[C@H](C)N(CCC(F)(F)F)C[C@H]1C | -1 | 0 | -1
29 | CO[C@@H]1CN(C)C(=O)c2cc(NS(=O)(=O)c3cn(C)cn3)ccc2OC[C@@H](C)N(Cc2cccc(Cl)c2)C[C@H]1C | 1 | / | -6
30 | COc1ccc(S(=O)(=O)Nc2ccc3c(c2)C(=O)N([C@@H](C)CO)C[C@H](C)[C@H](CN(C)S(=O)(=O)c2ccccc2)OCCCC[C@@H](C)O3)cc1 | 15* | 0 | 11
31 | COc1ccc(S(=O)(=O)N(C)C[C@@H]2OCCCC[C@@H](C)Oc3ccc(NS(=O)(=O)c4ccc(C)cc4)cc3C(=O)N([C@H](C)CO)C[C@@H]2C)cc1 | 15* | 0 | -6
32 | COc1ccc(S(=O)(=O)N(C)C[C@H]2OCCCC[C@H](C)Oc3ccc(NS(=O)(=O)c4ccc(C)cc4)cc3C(=O)N([C@H](C)CO)C[C@H]2C)cc1 | 29* | 0 | -34

# | ERp5 block | PDI inh | UUG fidelity
25 | -2 | / | 2
26 | -5 | / | -1
27 | -1 | / | /
28 | 0 | / | /
29 | -4 | / | -13
30 | 3 | / | /
31 | -4 | / | -5
32 | 1 | / | -10

Continued:
# | molecule | SIRT5 block | FGF22 binding | S100A4 MyoIIA
33 | COc1ccc(S(=O)(=O)Nc2ccc3c(c2)C(=O)N([C@@H](C)CO)C[C@H](C)[C@H](CN(C)S(=O)(=O)c2ccc(C)cc2)OCCCC[C@@H](C)O3)cc1 | 9 | 0 | -5
34 | CCNC(=O)[C@@H]1[C@@H](CO)[C@@H]2Cn3c(ccc(-c4ccccc4)c3=O)[C@H]1N2C(=O)CC1CC1 | -32 | / | 43
35 | CS(=O)(=O)Nc1ccc2c(c1)[C@H]1C[C@H](CC(=O)NCc3ccccc3)O[C@@H](CO)[C@H]1O2 | -1 | 1 | 9
36 | O=C(CCl)N=c1sccn1Cc1ccccc1Cl | -2 | 0 | 2
37 | O=C(CCl)N=c1sccn1Cc1ccc(Cl)cc1Cl | -6 | 44* | 1

# | ERp5 block | PDI inh | UUG fidelity
33 | -4 | / | -7
34 | -2 | / | /
35 | -2 | / | -13
36 | 6 | -8 | -32
37 | 7 | 6 | /
